Legend:
[1] = Plasma pharmacokinetics and tissue distribution 2 h after oral cabazitaxel 10 mg/kg with vehicle or 25 mg/kg ritonavir in wild-type, Oatp1a/1b−/−, Oatp1a/1b/2b1−/−, OATP1B1- and OATP1B3-transgenic mice; assay type: in vivo; details: cabazitaxel 10 mg/kg oral, vs wild-type vehicle; for Fold change Pbrain (h^−1): ritonavir 25 mg/kg oral
Description: All animals were fasted 2 to 3 hours prior to the start of the experiment to minimize variation in absorption after oral administration. […] Subsequently, cardiac puncture was performed with a heparinized needle and syringe collecting a final blood sample. […] All samples were stored at −30° C. until analysis.
Differences were considered statistically significant when P<0.05. All data are presented as geometric mean±SD.

[2] = male, Cyp3aXAV (human CYP3A in Cyp3a−/−, FVB background), mouse, in vivo, po, 10 mg/kg
Description: The Jevtana (10 mg/mL) solution contains 0.26 mg/mL polysorbate 80 and 15% (w/v) ethanol, and is adjusted to pH 2-6 with citric acid. […] The stock solution was further diluted 5-fold with water to reach a 2.5 mg/mL dosing solution for oral administration. The vehicle solution only consists of polysorbate 80, ethanol and water (1:1:8, v/v/v). […] All dosing solutions were prepared freshly on the day of the experiment.
At the termination time point of 24 hours, mice were anesthetized using an isoflurane evaporator with 3% isoflurane with 0.8 L/min air and 0.3 L/min oxygen. A final blood sample was taken using cardiac puncture, using Eppendorf tubes previously prepared with heparin as an anticoagulant. Subsequently, the anesthetized mice were sacrificed by cervical dislocation and the tissues of interest were collected. Brain, liver, spleen, kidney, small intestine, and testis were collected. […]
Pharmacokinetic parameters were estimated by non-compartmental analysis using the software package of PK solutions 2.0.2 (SUMMIT, Research Service). The area under the curve (AUC) of the plasma-concentration time curve for all the compounds was calculated using the linear trapezoidal rule without extrapolating to infinity. […] The statistics for the comparison of multiple groups were calculated with the one-way analysis of variance (ANOVA), whereas Sidak's post hoc correction was performed. […]

Fold change Pbrain (h^−1) ([1]; OATP1B1-transgenic mice): 2.38 | Fold change Pbrain (h^−1) ([1]; Oatp1a/1b/2b1−/− mice): 2.23 | Fold change Cliver ([1]; Oatp1a/1b−/− mice, vehicle): 1.02 | AUC0-24 h [2]: 1.241 µM·h
Compound: CO[C@H]1C(=O)[C@]2(C)[C@@H](OC)C[C@H]3OC[C@@]3(OC(C)=O)[C@H]2[C@H](OC(=O)c2ccccc2)[C@]2(O)C[C@H](OC(=O)[C@H](O)[C@@H](NC(=O)OC(C)(C)C)c3ccccc3)C(C)=C1C2(C)C [cabazitaxel]

From patent US20240226072A1 (Stichting Het Nederlands Kanker Instituut, priority 2022, published 2024)
